Literature values in article PMC3583342 (Clinical pharmacology and therapeutics, 2008).

Details: cited from earlier work

CCC(=O)C(CC(C)N(C)C)(c1ccccc1)c1ccccc1 (stereo not shown) [methadone]
decrease in oral racemic methadone plasma Cmax and AUC by ritonavir: 36-38%
